Structures can show the parent of a compound that is named as a salt. Where two headings read alike, the source gives them in different places.
Assays:
BIR2 domain of XIAP = BIR2 domain of XIAP (Homo sapiens (Human), UniProt P98170, C202A/C213G); assay: TR-FRET assay for BIR2 (inhibition of binding of XIAP BIR2 domain to SMAC-derived Peptide A); conditions: 6x His-tagged BIR2 domain (aa 124-240 of XIAP) 10 nM, Peptide A 20 nM
BIR3 domain of XIAP = BIR3 domain of XIAP (Homo sapiens (Human), UniProt P98170); assay: TR-FRET assay for BIR3 (inhibition of binding of XIAP BIR3 domain to SMAC-derived Peptide A); conditions: read-out: IC50 BIR3
[1] = 6x His-tagged BIR3 domain (aa 241-356 of XIAP) 10 nM, Peptide A 20 nM, TR-FRET

Protein sequences, listed by entry. Tags and fused reporters are not part of them. Chains listed by the source or under a name are the forms on record and can include a tag or linker. Residues count along the entry.
UniProt P98170, 124-240 with tags or gaps C202A/C213G limits assumed: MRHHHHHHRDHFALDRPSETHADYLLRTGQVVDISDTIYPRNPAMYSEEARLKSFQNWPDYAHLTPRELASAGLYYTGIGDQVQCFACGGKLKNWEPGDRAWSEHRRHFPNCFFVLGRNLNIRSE
UniProt P98170, 241-356 with tags or gaps limits assumed: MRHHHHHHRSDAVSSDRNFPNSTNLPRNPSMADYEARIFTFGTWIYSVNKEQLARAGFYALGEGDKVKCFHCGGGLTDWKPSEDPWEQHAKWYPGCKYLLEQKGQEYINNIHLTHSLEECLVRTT

SMILES	IC50 (BIR2 domain of XIAP)	IC50 (BIR3 domain of XIAP; [1])	IC50 (BIR3 domain of XIAP)
CN[C@@H](C)C(=O)N[C@H]1CN(C(=O)c2ccc(C#N)cc2)c2cc(C#N)ccc2N(Cc2c(OC)ccc3cc(Br)ccc23)C1=O [Example 144, (S)-N-((S)-1-((6-bromo-2-methoxynaphthalen-1-yl)methyl)-7-cyano-5-(4-cyanobenzoyl)-2-oxo-2,3,4,5-tetrahydro-1H-benzo[b][1,4]diazepin-3-yl)-2-(methylamino)propanamide hydrochloride]	6.15 nM	23800 nM	
CN[C@@H](C)C(=O)N[C@H]1CN(C(=O)c2ccc(C(C)O)cc2)c2ccccc2N(Cc2c(OC)ccc3cc(Br)ccc23)C1=O (stereo partly drawn) [Example 103, (2S)-N-((3S)-1-((6-bromo-2-methoxynaphthalen-1-yl)methyl)-5-(4-(1-hydroxyethyl)benzoyl)-2-oxo-2,3,4,5-tetrahydro-1H-benzo[b][1,4]diazepin-3-yl)-2-(methylamino)propanamide]	9.14 nM	41100 nM	
CN[C@@H](C)C(=O)N[C@H]1CN(C(=O)c2ccc(C(=O)OC)cc2)c2ccccc2N(Cc2noc3ccccc23)C1=O [Example 72, Methyl 4-((S)-5-(benzo[d]isoxazol-3-ylmethyl)-3-((S)-2-(methylamino)propanamido)-4-oxo-2,3,4,5-tetrahydro-1H-benzo[b][1,4]diazepine-1-carbonyl)benzoate hydrochloride]	44 nM		> 54800 nM
CN[C@@H](C)C(=O)N[C@H]1CN(C(=O)c2ccc(C(C)=O)cc2)c2ccccc2N(Cc2noc3ccccc23)C1=O [Example 69d]	12 nM	> 54800 nM	
CN[C@@H](C)C(=O)N[C@H]1CN(C(=O)c2ccc([N+](=O)[O-])cc2)c2ccccc2N(Cc2c(C)ccc3ccccc23)C1=O [Example 66, (2S)-2-(methylamino)-N-[(3S)-5-[(2-methyl-1-naphthyl)methyl]-1-(4-nitrobenzoyl)-4-oxo-2,3-dihydro-1,5-benzodiazepin-3-yl]propanamide hydrochloride]	38 nM		48300 nM
CN[C@@H](C)C(=O)N[C@H]1CN(C(=O)c2ccccc2C#N)c2ccccc2N(Cc2c(OC)ccc3cc(Br)ccc23)C1=O [Example 90f]	20 nM	> 54800 nM	
CN[C@@H](C)C(=O)N[C@H]1CN(C(=O)c2ccc(C(C)O)cc2)c2ccccc2N(Cc2c(OC)ccc3cc(Br)ccc23)C1=O (stereo partly drawn) [Example 33, (S)—N—{(S)-1-(6-Bromo-2-methoxy-naphthalen-1-ylmethyl)-5-[4-(1-hydroxy-ethyl)-benzoyl]-2-oxo-2,3,4,5-tetrahydro-1H-benzo[b][1,4]diazepin-3-yl}-2-methylamino-propionamide hydrochloride]	18 nM		
CN[C@@H](C)C(=O)N[C@H]1CN(C(=O)Cc2ccccn2)c2ccccc2N(Cc2c(OC)ccc3cc(Br)ccc23)C1=O [Example 89c]	10 nM	49900 nM	
CN[C@@H](C)C(=O)N[C@H]1CN(C(=O)c2cnn(C)c2)c2ccccc2N(Cc2c(OC)ccc3cc(Br)ccc23)C1=O [Example 89e]	11 nM	32500 nM	
CN[C@@H](C)C(=O)N[C@H]1CN(C(=O)c2ccc(CO)cc2)c2ccccc2N(Cc2c(C)ccc3ccccc23)C1=O [Example 102, (S)—N—[(S)-5-(4-Hydroxymethyl-benzoyl)-1-(2-methyl-naphthalen-1-ylmethyl)-2-oxo-2,3,4,5-tetrahydro-1H-benzo[b][1,4]diazepin-3-yl]-2-methylamino-propionamide hydrochloride]	57 nM		> 54800 nM
CN[C@@H](C)C(=O)N[C@H]1CN(C(=O)c2ccc3[nH]ccc3c2)c2ccccc2N(Cc2c(C)ccc3ccccc23)C1=O [Example 145, (25)-N-[(3S)-1-(1H-indole-5-carbonyl)-5-[(2-methylnaphthalen-1-yl)methyl]-4-oxo-2,3-dihydro-1,5-benzodiazepin-3-yl]-2-(melhylamino)propanamide]	26.5 nM	> 54800 nM	
CN[C@@H](C)C(=O)N[C@H]1CN(C(=O)c2ccc(C#N)cc2)c2cc(C#N)ccc2N(Cc2c(OC(F)F)ccc3ccccc23)C1=O [Example 142, (S)-N-((S)-7-cyano-5-(4-cyanobenzoyl)-1-((2-(difluoromethoxy)naphthalen-1-yl)methyl)-2-oxo-2,3,4,5-tetrahydro-1H-benzo[b][1,4]diazepin-3-yl)-2-(methylamino)propanamide hydrochloride]	32.4 nM	47200 nM	
CN[C@@H](C)C(=O)N[C@H]1CN(C(=O)CCCC(C)=O)c2ccccc2N(Cc2c(C)ccc3ccccc23)C1=O [Example 13d]	175 nM	> 54800 nM	
CN[C@@H](C)C(=O)N[C@H]1CN(C(=O)c2ccc(C(=O)NCC3CCCCC3)cc2)c2ccccc2N(Cc2c(OC)ccc3cc(Br)ccc23)C1=O [Example 31, 4-[(S)-5-(6-Bromo-2-methoxy-naphthalen-1-ylmethyl)-3-((S)-2-methylamino-propionylamino)-4-oxo-2,3,4,5-tetrahydro-benzo[b][1,4]diazepine-1-carbonyl]-N-cyclohexylmethyl-benzamide hydrochloride]	41 nM		
[2H]C([2H])([2H])N[C@@H](C)C(=O)N[C@H]1CN(C(=O)c2ccc(C(C)=O)cc2)c2ccccc2N(Cc2c(OC(F)F)ccc3ccccc23)C1=O [Example 69n]	11 nM		
CN[C@H](C)C(=O)N[C@H]1CN(C(=O)c2ccc(C(C)=O)cc2)c2ccccc2N(Cc2c(C)ccc3ccccc23)C1=O [Example 68, (R)—N—((S)-5-(4-acetylbenzoyl)-1-((2-methylnaphthalen-1-yl)methyl)-2-oxo-2,3,4,5-tetrahydro-1H-benzo[b][1,4]diazepin-3-yl)-2-(methylamino)propanamide hydrochloride]	1480 nM		
COc1ccc2cc(Br)ccc2c1CN1C(=O)[C@@H](NC(=O)[C@H](C)N(C)C)CN(C(=O)c2ccc(C(C)=O)cc2)c2ccccc21 [Example 38, (S)—N—((S)-5-(4-acetylbenzoyl)-1-((6-bromo-2-methoxynaphthalen-1-yl)methyl)-2-oxo-2,3,4,5-tetrahydro-1H-benzo[b][1,4]diazepin-3-yl)-2-(dimethylamino)propanamide]	1070 nM		
CN[C@@H](C)C(=O)N[C@H]1CN(C(=O)c2ccc(Cl)cc2)c2ccccc2N(Cc2c(C)ccc3ccccc23)C1=O [Example 96f]	20 nM		
CN[C@@H](C)C(=O)N[C@H]1CN(C(=O)c2ccc(C(N)=O)cc2)c2ccccc2N(Cc2c(OC)ccc3cc(Br)ccc23)C1=O [Example 30, 4-[(S)-5-(6-Bromo-2-methoxy-naphthalen-1-ylmethyl)-3-((S)-2-methylamino-propionylamino)-4-oxo-2,3,4,5-tetrahydro-benzo[b][1,4]diazepine-1-carbonyl]-benzamide hydrochloride]	33 nM		
[2H]C([2H])([2H])N[C@@H](C)C(=O)N[C@H]1CN(C(=O)c2ccc(C(C)=O)cc2)c2ccccc2N(Cc2c(OC)ccc3c(Br)cccc23)C1=O [Example 69m]	7 nM		
CN[C@@H](C)C(=O)N[C@H]1CN(C(=O)CC(C)C)c2ccccc2N(Cc2ccccc2OC)C1=O [Example 22, (S)—N—[(S)-1-(2-Methoxy-benzyl)-5-(3-methyl-butyryl)-2-oxo-2,3,4,5-tetrahydro-1H-benzo[b][1,4]diazepin-3-yl]-2-methylamino-propionamide hydrochloride]	3170 nM		
CN[C@@H](C)C(=O)N[C@H]1CN(C(=O)c2ccc(N)cc2)c2ccccc2N(Cc2c(OC)ccc3cc(Br)ccc23)C1=O [Example 35, (S)—N—((S)-5-(4-aminobenzoyl)-1-((6-bromo-2-methoxynaphthalen-1-yl)methyl)-2-oxo-2,3,4,5-tetrahydro-1H-benzo[b][1,4]diazepin-3-yl)-2-(methylamino)propanamide dihydrochloride]	6 nM		
[2H]C([2H])([2H])Oc1ccc2cc(Br)ccc2c1CN1C(=O)[C@@H](NC(=O)[C@H](C)NC)CN(C(=O)c2ccc(C#N)cc2)c2ccccc21 [Example 84, (2S)—N-[(3S)-5-[[6-bromo-2-(trideuteriomethoxy)-1-naphthyl]methyl]-1-(4-cyanobenzoyl)-4-oxo-2,3-dihydro-1,5-benzodiazepin-3-yl]-2-(methylamino)propanamide hydrochloride]	10 nM		
CC(=O)c1ccc(C(=O)N2C[C@H](NC(=O)[C@H](C)N)C(=O)N(Cc3c(C)ccc4ccccc34)c3ccccc32)cc1 [Example 64, (S)—N—((S)-5-(4-acetylbenzoyl)-1-((2-methylnaphthalen-1-yl)methyl)-2-oxo-2,3,4,5-tetrahydro-1H-benzo[b][1,4]diazepin-3-yl)-2-aminopropanamide hydrochloride]			> 54800 nM
CN[C@@H](C)C(=O)N[C@H]1CN(C(=O)CCC[N+](=O)[O-])c2ccccc2N(Cc2c(OC)ccc3cc(Br)ccc23)C1=O [Example 13n]	91 nM		
CN[C@@H](C)C(=O)N[C@H]1CN(C(=O)c2ccc(C(O)(O)C(F)(F)F)cc2)c2ccccc2N(Cc2c(OC)ccc3cc(Br)ccc23)C1=O [Example 13k]	25 nM		
CN[C@@H](C)C(=O)N[C@H]1CN(C(=O)CS(C)(=O)=O)c2ccccc2N(Cc2nn(-c3ccccc3C#N)c3ccccc23)C1=O [Example 159, (S)-N-((S)-1-((1-(2-cyanophenyl)-1H-indazol-3-yl)methyl)-5-(2-(methylsulfonyl)acetyl)-2-oxo-2,3,4,5-tetrahydro-1H-benzo[b][1,4]diazepin-3-yl)-2-(methylamino)propanamide hydrochloride]	41.3 nM		
CN[C@@H](C)C(=O)N[C@H]1CN(C(=O)c2cccc(N)c2)c2ccccc2N(Cc2c(C)ccc3ccccc23)C1=O [Example 96j]		24600 nM	
CN[C@@H](C)C(=O)N[C@H]1CN(C(=O)c2ccc(C#N)cc2)c2ccccc2N(Cc2c(OC)ccc3cc(Br)ccc23)C1=O [Example 13p]	22 nM		
